Earlier results on one substance are cited in US11739132B2, “Separation moieties and methods of use thereof” (Werewolf Therapeutics, Inc., priority 2019, dated 2023).

The conditions of this series: in vivo, cited from earlier work.

In the case of Interleukin-2 [IL-2], the “Half-life of metabolism by the kidneys” value is about 2.5 h. For the same substance, where the note is “iv”, the Serum half-life is about 0.167 h.
